System: Nc1ncnc2c1ncn2[C@@H]1O[C@H](COP(=O)(O)OP(=O)(O)OP(=O)(O)O)[C@@H](O)[C@H]1O
Assay: purified protein
Conditions: Mg acetate, Hepes pH 7.5, 25°C

Q: With “MSMEG_1954 (Mycolicibacterium smegmatis MC2 155)” as the substance, how does the Km read?
A: 231 µM

Q: And the kcat?
A: 0.00864 s⁻¹
